Data published in article PMC8881512 (Nature Communications, 2022).

Amino acid sequences for entries named in this document (tags omitted).
UniProt O95835, whole entry: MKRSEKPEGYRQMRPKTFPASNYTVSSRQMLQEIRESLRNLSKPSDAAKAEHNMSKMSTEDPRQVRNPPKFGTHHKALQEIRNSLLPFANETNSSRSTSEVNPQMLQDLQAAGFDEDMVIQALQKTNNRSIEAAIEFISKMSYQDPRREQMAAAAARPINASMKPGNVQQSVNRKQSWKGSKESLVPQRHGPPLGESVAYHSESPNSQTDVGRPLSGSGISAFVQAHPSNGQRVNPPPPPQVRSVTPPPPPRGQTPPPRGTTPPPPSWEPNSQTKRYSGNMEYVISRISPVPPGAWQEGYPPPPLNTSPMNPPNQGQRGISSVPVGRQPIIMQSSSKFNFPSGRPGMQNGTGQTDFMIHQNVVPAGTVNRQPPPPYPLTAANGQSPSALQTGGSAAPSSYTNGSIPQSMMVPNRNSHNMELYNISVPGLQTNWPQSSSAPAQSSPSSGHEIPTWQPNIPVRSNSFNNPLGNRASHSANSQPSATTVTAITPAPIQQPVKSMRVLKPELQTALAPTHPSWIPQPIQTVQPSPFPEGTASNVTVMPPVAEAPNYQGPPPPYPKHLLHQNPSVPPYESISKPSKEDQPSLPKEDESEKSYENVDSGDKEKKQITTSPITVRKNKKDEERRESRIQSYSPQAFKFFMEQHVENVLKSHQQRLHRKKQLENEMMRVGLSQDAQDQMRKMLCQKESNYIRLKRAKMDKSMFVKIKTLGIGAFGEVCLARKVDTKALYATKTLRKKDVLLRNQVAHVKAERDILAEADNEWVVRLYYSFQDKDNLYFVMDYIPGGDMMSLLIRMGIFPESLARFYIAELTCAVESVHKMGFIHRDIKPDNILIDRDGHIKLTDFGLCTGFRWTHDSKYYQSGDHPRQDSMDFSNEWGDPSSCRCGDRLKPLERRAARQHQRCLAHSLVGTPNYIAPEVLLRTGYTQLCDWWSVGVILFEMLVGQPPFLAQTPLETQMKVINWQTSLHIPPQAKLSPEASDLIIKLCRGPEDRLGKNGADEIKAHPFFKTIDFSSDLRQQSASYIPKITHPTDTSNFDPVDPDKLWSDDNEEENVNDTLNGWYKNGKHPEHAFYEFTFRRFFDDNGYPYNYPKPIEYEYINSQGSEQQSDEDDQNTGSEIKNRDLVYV

Target: LATS1 (Homo sapiens, UniProt O95835)
Test: LATS1 primary screen HTRF kinEASE assay (high-throughput compound screening)
Conditions: read-out: LATS1 IC50 (LATS1 HTRF assay of the HTS); ATP at Km (31.4 μM); top concentration 30 μM

SMILES: CCN(Cc1ccc2c(c1)OCCO2)c1nc(-c2ccncc2)nc2ccccc12
- IC50: 1000 nM
